Measured values published in patent publication US9260439B2, “Dihydropyrrolopyrimidine derivatives” (PFIZER INC., priority 2014, dated 2016).

Amino acid sequences for entries named in this document (tags omitted).
UniProt P42336, whole entry: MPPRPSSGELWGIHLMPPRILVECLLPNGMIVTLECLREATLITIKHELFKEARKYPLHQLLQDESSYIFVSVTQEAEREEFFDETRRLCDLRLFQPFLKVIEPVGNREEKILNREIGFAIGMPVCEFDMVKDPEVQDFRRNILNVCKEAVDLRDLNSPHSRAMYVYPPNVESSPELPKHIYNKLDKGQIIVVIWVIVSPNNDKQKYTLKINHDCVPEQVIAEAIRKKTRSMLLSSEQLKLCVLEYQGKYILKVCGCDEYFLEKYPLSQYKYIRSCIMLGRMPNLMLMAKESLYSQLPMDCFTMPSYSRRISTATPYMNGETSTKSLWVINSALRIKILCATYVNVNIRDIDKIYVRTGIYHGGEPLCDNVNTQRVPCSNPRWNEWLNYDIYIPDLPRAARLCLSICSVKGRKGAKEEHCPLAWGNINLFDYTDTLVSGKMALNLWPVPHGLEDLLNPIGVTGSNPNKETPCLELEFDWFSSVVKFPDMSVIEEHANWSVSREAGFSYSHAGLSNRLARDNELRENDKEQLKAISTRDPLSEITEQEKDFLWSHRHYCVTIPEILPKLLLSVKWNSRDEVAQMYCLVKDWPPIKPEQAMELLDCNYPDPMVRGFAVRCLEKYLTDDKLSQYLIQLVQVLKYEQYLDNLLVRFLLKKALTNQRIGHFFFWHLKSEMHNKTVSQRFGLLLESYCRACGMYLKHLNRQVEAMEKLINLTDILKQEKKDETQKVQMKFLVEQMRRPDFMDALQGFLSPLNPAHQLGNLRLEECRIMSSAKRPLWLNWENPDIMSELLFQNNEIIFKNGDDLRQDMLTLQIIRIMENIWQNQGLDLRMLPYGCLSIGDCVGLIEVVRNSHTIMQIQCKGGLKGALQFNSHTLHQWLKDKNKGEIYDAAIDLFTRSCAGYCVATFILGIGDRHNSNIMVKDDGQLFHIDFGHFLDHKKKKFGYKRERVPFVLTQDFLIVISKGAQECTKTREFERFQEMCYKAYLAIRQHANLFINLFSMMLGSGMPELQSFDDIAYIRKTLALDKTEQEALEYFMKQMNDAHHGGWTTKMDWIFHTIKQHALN

Target: truncated PI3Kα (p110α/iSH2 p85α) (Homo sapiens (Human), UniProt P42336)
Assay: PI3KA_Act fluorescence polarization kinase assay (Ki)
Conditions: 1 mM ATP, tested form: HCl
From the text: 2) p110α-iSH2 p85α Complex (Full Length p110α and p85α iSH2)(“PI3KA_Act”)
Genes encoding for full length p110α and p85α nSH-iSH2=niSH2 (p85a aminoacids 322-600) subunits of PI3Kα complex were subcloned from existing constructs into pFASTBAC Dual vector (Life Technologies, Carlsbad, Calif.) using standard cloning procedures. Gene encoding p110α subunit was subcloned into polyhedrine promoter while gene encoding p85α niSH2 domains was subcloned into p10 promoter. Additionally, Human Rhinovirus 3C Protease (“HRV 3C”) site was introduced between nSH2 and iSH2, replacing aminoacids 431-438 of p85α with LEVLFQGP HRV 3C recognition sequence, using standard QuickChange mutagenesis protocol (Agilent Technologies, CA). Recombinant baculovirus was generated using Bac-to-Bac protocol (Life Technologies, Carlsbad, Calif.). Large scale expression was conducted in Sf21 (Life Technologies, Carlsbad, Calif.) cells at a multiplicity of infection (“MOI”)=1 for 48 hours. […]
The biochemical assays of kinase activity of full-length PI3Kα (full-length p110α/p85a) or truncated PI3Kα (p110α/iSH2 p85a) were conducted using a fluorescence polarization format similar to the procedure of Yuan J., et al., (2011) “PF-04691502, a Potent and Selective Oral Inhibitor of PI3K and mTOR Kinases with Antitumor Activity”, Mol Cancer Ther. 10, 2189-2199. […]

For C[C@@H]1COCCN1c1nc(-c2cnc(N)nc2)c2c(n1)N([C@@]1(C)CCN(C(=O)C(C)(C)N)C1)CC2, the “PI3KA_Act Ki” value was 1.040 nM.
